Measured values: ChEMBL document CHEMBL4706491, “Discovery of novel N-sulfonamide-tetrahydroquinolines as potent retinoic acid receptor-related orphan receptor γt inverse agonists for the treatment of autoimmune diseases” (Eur J Med Chem, 2020)

By UniProt entry, the sequences of proteins in these tests, tags left out. Where a name states a change or a piece, a line headed by the entry shows the natural chain unless it says otherwise.
UniProt P51449: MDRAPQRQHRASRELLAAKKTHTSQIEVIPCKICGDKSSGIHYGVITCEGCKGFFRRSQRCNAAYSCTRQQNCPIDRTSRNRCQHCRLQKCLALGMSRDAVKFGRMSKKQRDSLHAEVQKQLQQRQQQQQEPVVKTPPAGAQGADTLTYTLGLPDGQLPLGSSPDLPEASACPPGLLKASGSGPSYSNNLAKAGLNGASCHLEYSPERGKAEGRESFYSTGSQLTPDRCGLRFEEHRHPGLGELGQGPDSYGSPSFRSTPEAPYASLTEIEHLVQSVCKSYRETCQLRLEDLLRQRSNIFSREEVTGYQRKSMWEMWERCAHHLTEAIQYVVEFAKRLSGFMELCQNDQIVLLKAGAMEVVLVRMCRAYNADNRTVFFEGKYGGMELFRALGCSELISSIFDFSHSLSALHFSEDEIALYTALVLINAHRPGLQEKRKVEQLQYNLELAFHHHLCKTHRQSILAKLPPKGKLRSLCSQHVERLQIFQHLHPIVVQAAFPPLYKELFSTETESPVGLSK

Legend:
[1] = target: Nuclear receptor ROR-gamma (Homo sapiens, UniProt P51449); assay: Agonist activity at APC-labeled RORgammat LBD (unknown origin) incubated for 1 hr in presence of europium-labeled co-activator SRC1 by FRET assay relative to control; conditions: filed as agonist
[2] = test system: Mus musculus; assay: Antiinflammatory activity against imiquimod-induced psoriasis BALB/c mouse model assessed as body weight loss at 0.02 % applied topically once daily for 12 days; format: functional, organism-based; conditions: time 12.0 day

Q: With CC(=O)N1CCN(c2ccc3c(c2)CCCN3S(=O)(=O)N(C)CCc2ccccc2)CC1 as the compound, how does the Efficacy [1] read?
A: 41%

Q: For C[C@H]1C[C@H]2[C@@H]3CCC4=CC(=O)C=C[C@]4(C)[C@@]3(F)[C@@H](O)C[C@]2(C)[C@@]1(O)C(=O)CCl, which Activity [2] is on record?
A: inactive

Q: How did the Efficacy [1] turn out when CC(=O)N1CCN(c2ccc3c(c2)CCCN3S(=O)(=O)c2ccccc2)CC1 was run?
A: 83.5 µM

Calls of active or inactive are those of the source. The calls are words filed in the database; no cut-off is given here.
